# Assay results: article PMC2999882 (Molecular pharmacology, 2008)
# Amino acid sequences for entries named in this document (tags omitted). Residues count along the entry.
# UniProt P36544, 23-502: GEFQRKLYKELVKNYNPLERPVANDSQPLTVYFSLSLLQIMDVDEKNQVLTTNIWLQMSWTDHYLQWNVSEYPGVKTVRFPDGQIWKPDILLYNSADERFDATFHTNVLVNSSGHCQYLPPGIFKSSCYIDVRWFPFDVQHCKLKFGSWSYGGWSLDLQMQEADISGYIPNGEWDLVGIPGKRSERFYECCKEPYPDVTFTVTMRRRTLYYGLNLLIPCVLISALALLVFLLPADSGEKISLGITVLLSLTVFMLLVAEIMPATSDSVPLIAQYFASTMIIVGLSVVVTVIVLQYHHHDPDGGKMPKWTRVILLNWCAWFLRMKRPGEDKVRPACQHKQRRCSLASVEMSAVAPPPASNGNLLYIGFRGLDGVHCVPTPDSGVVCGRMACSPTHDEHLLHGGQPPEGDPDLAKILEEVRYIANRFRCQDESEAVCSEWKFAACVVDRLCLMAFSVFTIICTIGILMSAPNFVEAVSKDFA
# Biological target: α7 nAChR (Homo sapiens, UniProt P36544)
compound,measurement,value
"C[N+]12CCC(CC1)CC2.[I-] [MQN, 1-methyl-1-azoniabicyclo[2.2.2]octane iodide]",selectivity classification,α7-selective agonists
